Compound activity as filed in PubChem.
MITF act – activators of MITF-driven TRPM1 promoter activity in SK-MEL-5 cells; activation, % at 12.5 µM; hit rate 0.75% among 300,000; SK-MEL-5 TRPM1-promoter luciferase, 24 h; % of positive control, neutral wells = 0;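 active = mean activation of at least 80% with every replicate also reaching 80%; inconclusive = mean reaches 80% but some replicate falls short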
MITF TRPM1 inh – reduces MITF-dependent TRPM1 promoter luciferase signal. hit rate 0.83% among 330,000. AID 488899. SK-MEL-5 TRPM1 promoter luciferase, 24 h. inhibition, % at 12.5 µM;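 active = mean inhibition across replicates of 60% or more, whatever share of single replicates reaches that level; inconclusive = some that reach 60%, reason not given; inactive = mean inhibition across replicates below 60%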
miR122 inh – inhibitors of miR-122 in Huh7 cells | hit rate 0.3% among 340,000 | activation (reporter increase), % at 12.5 µM | Huh7 miR-122 Renilla luciferase sensor, 48 h; neutral wells = 0, positive control = 100 | AID 602342;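 active = mean replicate activation score at least 90 and every replicate individually at or above 90; inconclusive = only one of the two criteria met; inactive = neither criterion met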;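 note: higher luciferase means less miR-122 activity so hits act as miR-122 inhibitors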
Wnt act – activators of Wnt/beta-catenin signaling; Wnt/beta-catenin reporter cell assay, activator, plate reader; activation, % at 9.35 µM; hit rate 1.2% among 300,000; AID 743398; in the data active = activation above about 30%, passing the limit was not always enough; inconclusive = no clear call, values can overlap the other calls
PGC1a acetyl inh – modulators of PGC1a acetylation; inhibition, % at 15.6 µM; U2OS PGC1a acetylation, AlphaScreen anti-acetyl-lysine; with virally co-expressed GCN5 acetyltransferase; AID 651687; hit rate 0.17% among 350,000;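 active = every replicate shows inhibition of at least 40%; inconclusive = mean inhibition at least 40% but some replicate below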
Yeast UUG start – yeast start codon fidelity modulation | S. cerevisiae UUG-firefly luciferase reporter, luminescence/redox ratio | activity score, % at 18.7 µM | 0.13% of 350,000 active | AID 602363;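 active means replicate mean at a twofold rise or more, about +100% in these data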;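 further: firefly luciferase made from a UUG start codon reports start codon fidelity; reporter light over untreated wells divided by growth signal over untreated wells; some hits fall short of that in this replicate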
Hits are given with their value; i = inactive; ? = inconclusive; nt = no result given; [ ] = another dose, or the depositor's remark. In the library only some 2.1% were active in any assay of this set; here they are far more common.

SMILES | MITF act | MITF TRPM1 inh | miR122 inh | Wnt act | PGC1a acetyl inh | Yeast UUG start
O=C(Nc1ncccc1O)c1cc2ccccc2o1 | i | i | i | 55.4 | nt | i
COc1ccccc1NC(=O)c1oc2ccc(C)cc2c1C | nt | i | i | i | i | i
Cc1ccc(NC(=O)c2oc3ccccc3c2C)nc1 | i | i | i | ? | i | i
CCCNC(=O)N(C)C[C@@H]1Oc2cc(C#CC3CC3)ccc2S(=O)(=O)N([C@H](C)CO)C[C@@H]1C | nt | nt | i | nt | i | i
S=c1sc2c(Cl)ncnc2n1-c1ccccc1 | i | 70.4 | i | i | 64.0 | i
Cc1nc(N2CCN(C)CC2)c2sc(=S)n(-c3ccccc3)c2n1 | i | i | nt | i | nt | i
COC(=O)C12OCC34C(CC5C(C)=C(O)C(=O)CC5(C)C3C(O)C1O)OC(=O)C(OC(=O)C=C(C)C)C24 (stereo unspecified) | nt | 72.5 | i | i | ? | nt
O=C(NCC[C@H]1CC[C@H](NC(=O)C2CCC2)[C@@H](CO)O1)c1cc(Cl)cc(Cl)c1 | nt | nt | nt | nt | i | i
Cc1c(C(=O)OCc2ccccc2)[nH]c2c1C(=O)CC(c1ccco1)C2 (stereo unspecified) | i | i | 139.3 | nt | i | i
C[C@@H]1CN([C@H](C)CO)C(=O)c2cc(NC(=O)Nc3ccccc3)ccc2O[C@@H]1CN(C)Cc1ccc2c(c1)OCO2 | nt | nt | i | nt | i | i
c1ccc(-c2csc(-c3ccncc3)n2)cc1 | i | i | i | i | i | i
c1ccc(-c2ccc(-c3ccncn3)cc2)cc1 | nt | i | i | 44.0 | i | i
O=C1c2cc([N+](=O)[O-])cc3cc([N+](=O)[O-])cc(c23)C(=O)N1c1ccccn1 | i | 82.0 | i | i | nt | i
Cc1cc(C)cc(C(O)c2ncc(-c3ccccc3C)[nH]2)c1 (stereo unspecified) | nt | nt | nt | i | nt | i
Cc1cc(C)cc(C(O)c2ncc(-c3ccccc3F)[nH]2)c1 (stereo unspecified) | nt | nt | 109.8 | i | i | i
Cc1cc(C(O)c2ncc(-c3ccccc3F)[nH]2)ccc1F (stereo unspecified) | nt | nt | 135.8 | i | nt | i
Cc1noc(C)c1NC(=O)Nc1ccc2c(c1)C(=O)N(C)[C@H]1CC[C@H](CC(=O)N[C@@H]3CCN(Cc4ccccc4)C3)O[C@H]1CO2 | nt | nt | i | nt | i | nt
CCC(C)NC(=O)c1ccc2c(Cl)c3c(nc2c1)CCC3 (stereo unspecified) | i | i | i | 42.3 | i | i
CCC(C)NC(=O)c1ccc2c(SCC(=O)O)c3c(nc2c1)CCCC3 (stereo unspecified) | i | i | i | i | ? | i
Cc1ccccc1S(=O)(=O)N1CC[C@@H]2[C@H](CO)Nc3ccc(-c4cccc(F)c4)cc3[C@@H]21 | nt | nt | i | nt | i | i
Cc1ccc(Cn2c(=N)n(CC(=O)c3ccc([N+](=O)[O-])cc3)c3ccccc32)cc1 | i | 98.3 | i | nt | nt | i
CC(=O)N1CC2(C1)[C@@H](c1ccc(-c3ccc(C#N)cc3)cc1)[C@@H](CO)N2C(C)=O | nt | nt | nt | nt | i | nt
O=C(CNC(=O)c1cccs1)c1ccc(Br)cc1 | 122.5 | i | i | i | i | i
O=C(CNC(=O)c1cccs1)OCc1ccc(Br)cc1 | i | i | i | i | i | i
CC(=O)N(C)C[C@@H]1Oc2cc(C#CC(C)(C)O)ccc2S(=O)(=O)N([C@H](C)CO)C[C@H]1C | nt | nt | i | nt | i | i
SMILES | MITF act | MITF TRPM1 inh | miR122 inh | Wnt act | PGC1a acetyl inh | Yeast UUG start
CN(C)CCCNC(=O)c1ccc(-c2nc(-c3ccc(Cl)cc3)cs2)cc1 | nt | 82.7 | i | i | i | i
COc1ccc(NC(=O)O/N=C/c2ccccc2)cc1 | i | i | i | 38.7 | nt | i
CN(C)c1ccc(/C=N/OC(=O)Nc2ccccc2)cc1 | i | i | nt | 52.3 | i | i
COc1ccc(NC(=O)O/N=C/c2ccccc2Cl)cc1 | i | i | nt | i | nt | nt
CCCCn1c(NC(=O)c2ccco2)c(S(=O)(=O)c2ccc(C)cc2)c2nc3ccccc3nc21 | i | i | nt | i | nt | nt
CCCCn1c(NC(=O)c2ccc(Br)o2)c(S(=O)(=O)c2ccccc2)c2nc3ccccc3nc21 | i | i | 165.1 | nt | i | i
COc1ccccc1C(=O)Nc1ccc2c(c1)C(=O)N(C)[C@H]1CC[C@@H](CC(=O)NCc3ccc(Cl)c(Cl)c3)O[C@@H]1CO2 | nt | nt | i | nt | i | i
CN1C(=O)c2cc(NC(=O)Cc3ccccc3)ccc2OC[C@@H]2O[C@H](CC(=O)NCC3CC3)CC[C@@H]21 | nt | nt | 233.3[16.7 µM] | nt | i | i
CN1C(=O)c2cc(NC(=O)Cc3ccccc3)ccc2OC[C@@H]2O[C@H](CC(=O)NCc3ccc(Cl)cc3)CC[C@@H]21 | nt | nt | 293.3[16.7 µM] | nt | i | i
CN1C(=O)c2cc(NC(=O)Cc3ccccc3)ccc2OC[C@@H]2O[C@H](CC(=O)NC3CCC3)CC[C@@H]21 | nt | nt | 125.0[16.7 µM] | nt | i | i
COc1ccccc1C(=O)Nc1ccc2c(c1)C(=O)N(C)[C@H]1CC[C@H](CC(=O)NCc3ccc(Cl)c(Cl)c3)O[C@H]1CO2 | nt | nt | 307.8[16.7 µM] | nt | i | i
CN1C(=O)c2cc(NC(=O)Cc3ccccc3)ccc2OC[C@@H]2O[C@@H](CC(=O)NCc3ccc(Cl)cc3)CC[C@H]21 | nt | nt | i | nt | i | i
C[C@@H]1CN([C@@H](C)CO)C(=O)c2cccc(NS(=O)(=O)c3cccs3)c2O[C@@H]1CN(C)Cc1ccc2c(c1)OCO2 | nt | nt | i | nt | i | i
CC(C)CC#Cc1cnc2c(c1)C(=O)N([C@H](C)CO)C[C@@H](C)[C@@H](CN(C)Cc1cncnc1)O2 | nt | nt | i | nt | i | i
COc1ccc(S(=O)(=O)Nc2ccc3c(c2)C(=O)N([C@H](C)CO)C[C@@H](C)[C@H](CN(C)S(=O)(=O)c2cccs2)O3)cc1 | nt | nt | i | nt | i | i
C=CCN1C(=O)[C@]2(O[C@H](CCn3cc(CCO)nn3)[C@@H]([Si](C)(C)c3ccc(OC)cc3)[C@@H]2C)c2cc(N3C(=O)c4cccc5cccc3c45)ccc21 | nt | nt | nt | nt | nt | i
COc1ccc2c3c(n(C)c2c1)[C@@H](CO)N(Cc1cc(F)ccc1F)CC31CCN(C(C)=O)CC1 | nt | nt | nt | nt | i | nt
COc1ccc(-c2[nH]ncc2-c2ccc3c(c2)OCCO3)c(O)c1 | i | i | i | nt | 53.1 | nt
